Among the data in patent US7064117B2, “Anti-cancer 2,3-dihydro-1H-pyrrolo[3,2-f]quinoline complexes of cobalt and chromium” (Auckland Uniservices Limited, priority 2001, dated 2006) are IC50 values, retold here.

For one test, the system named is AA8. As to the kind of experiment: cytotoxicity, 4 h aerobic drug exposure, AA8. Format: cell-based, Chinese hamster. Particulars: read-out: IC50 AA8; 4 h aerobic exposure; mean ± sem.
A further test deals with EMT6. The experiment in a line: cytotoxicity, 4 h aerobic drug exposure, EMT6. Format: cell-based, murine. Particulars: read-out: IC50 EMT6; 4 h aerobic exposure; mean ± sem.
Another test has as its system SKOV3. As to the kind of experiment: cytotoxicity, 4 h aerobic drug exposure, SKOV3. Type of test: cell-based, human. Particulars: read-out: IC50 SKOV3; 4 h aerobic exposure; mean ± sem.
The subject of a further test is UV4 cell line. The experiment in a line: cytotoxicity, 4 h aerobic drug exposure, UV4. Particulars: read-out: IC50 UV4; 4 h aerobic exposure; mean ± sem. Type of test: cell-based, Chinese hamster.

For orientation: IC50 means the concentration that gives 50% inhibition.

For [Co(TACN)(8-HQ)(CN)]ClO4, the IC50 in the test on AA8 came out at 5.67 mM; in the test on EMT6, 3.58 mM; in the test with SKOV3 it was 6.38 mM; with UV4 cell line, 6.14 mM.
